The values that follow come from patent US20240293405A1, “(1H-PYRROLO[2,3-B]PYRIDIN-1-YL)PYRIMIDIN-2-YL-AMINO-PHENYL-ACRYLAMIDE INHIBITORS OF EGFR FOR USE IN THE TREATMENT OF BRAIN TUMORS” (Dana-Farber Cancer Institute, Inc., priority 2021, published 2024).

Molecules are shown by their SMILES. Where “and” joins values, the source holds several entries; their conditions need not be identical. Equal values may be shown once. Read-outs that look alike come from different tables or passages of the source.

In general, Kp refers to tissue or fluid exposure divided by exposure in the circulation.

The conditions of data set [1]: 3 mg/kg IV infusion over 5 h, 5 h, individual animal; Compound 2 as metabolite in Compound 1-dosed rats.
Data set [2] in a line: in vivo. The settings on record: male, Sprague Dawley, rat, 3 mg/kg, 3 mg/kg IV infusion over 5 h; for Kp at 5 h: brain, iv, Brain/Plasma (ratios).
A short description of data set [3]: Brain and plasma exposure after single oral dose. It is filed as in vivo, Sprague Dawley rats. The note with it: gefitinib 50 mg/kg PO, 7 hr.

Consider `COc1cc2ncnc(Nc3ccc(F)c(Cl)c3)c2cc1OCCCN1CCOCC1` [Gefitinib, reference compound], for which the “Brain/Plasma (ratios)” value was 0.544 and 0.517 and 0.624 in data set [1]; 0.250 and 0.142 in data set [3] (individual animal); 0.224 in data set [3] (mean n=3). Besides, the Kp at 5 h is 0.542 in data set [2] (5 h, individual animal, Compound 2 as metabolite in Compound 1-dosed rats) and 0.55 in data set [2] (5 h, mean n=6, Compound 2 as metabolite). The concentration at 0.083 h in data set [2] (plasma, intravenous, Plasma Concentration, 0.083 h, mean n=6, Compound 2 as metabolite) is 42 ng/mL. In addition, the concentration at 1 h in data set [2] (plasma, intravenous, Plasma Concentration, 1 h, mean n=6, Compound 2 as metabolite) amounted to 117 ng/mL. Besides, the concentration at 2 h in data set [2] (plasma, intravenous, Plasma Concentration, 2 h, mean n=6, Compound 2 as metabolite) was found to be 174 ng/mL. The concentration at 3 h in data set [2] (plasma, intravenous, Plasma Concentration, individual animal, Compound 2 as metabolite in Compound 1-dosed rats) amounted to 225 ng/mL; in data set [2] (plasma, intravenous, Plasma Concentration, mean n=6, Compound 2 as metabolite), 241 ng/mL. Further, the concentration at 5 h in data set [2] (plasma, intravenous, Plasma Concentration, 5 h, mean n=6, Compound 2 as metabolite) came to 280 ng/mL.
